{"source": "paper PMC9298352", "about": "“Design, Synthesis and Structural Analysis of Glucocerebrosidase Imaging Agents” (Chemistry (Weinheim an Der Bergstrasse, Germany), 2021)", "key": {"[1]": {"target": "T1, human GBA2 (from lysates of GBA2 overexpressed cells) (Homo sapiens, UniProt Q9HCG7)", "T1 construct": "expressed in transfected cells; host or cells: HEK293T", "T1 sequence (Q9HCG7 1-927)": "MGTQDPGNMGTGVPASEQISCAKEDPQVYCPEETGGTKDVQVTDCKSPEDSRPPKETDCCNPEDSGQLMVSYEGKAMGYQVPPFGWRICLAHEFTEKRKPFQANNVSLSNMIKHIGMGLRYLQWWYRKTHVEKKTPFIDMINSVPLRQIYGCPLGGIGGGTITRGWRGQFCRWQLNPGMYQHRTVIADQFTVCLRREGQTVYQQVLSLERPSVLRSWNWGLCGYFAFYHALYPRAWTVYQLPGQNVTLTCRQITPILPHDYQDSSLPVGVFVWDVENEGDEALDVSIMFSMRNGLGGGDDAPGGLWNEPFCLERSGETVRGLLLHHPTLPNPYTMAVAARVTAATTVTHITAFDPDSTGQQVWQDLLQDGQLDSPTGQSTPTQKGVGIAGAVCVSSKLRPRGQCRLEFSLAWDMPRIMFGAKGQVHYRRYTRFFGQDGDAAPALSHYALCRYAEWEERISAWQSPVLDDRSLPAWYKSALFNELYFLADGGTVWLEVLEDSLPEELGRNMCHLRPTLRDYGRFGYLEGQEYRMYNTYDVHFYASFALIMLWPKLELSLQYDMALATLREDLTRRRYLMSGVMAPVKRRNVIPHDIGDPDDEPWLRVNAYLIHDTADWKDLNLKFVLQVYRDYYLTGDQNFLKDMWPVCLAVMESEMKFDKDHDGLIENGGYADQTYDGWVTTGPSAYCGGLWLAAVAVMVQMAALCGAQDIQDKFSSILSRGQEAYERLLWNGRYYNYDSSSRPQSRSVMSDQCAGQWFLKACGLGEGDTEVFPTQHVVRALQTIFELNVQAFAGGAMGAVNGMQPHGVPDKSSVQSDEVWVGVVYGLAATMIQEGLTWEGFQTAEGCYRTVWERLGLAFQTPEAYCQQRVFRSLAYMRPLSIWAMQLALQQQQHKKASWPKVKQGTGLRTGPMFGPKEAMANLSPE", "test": "In vitro apparent IC50, fluorogenic substrate assay on GBA2 in lysates of overexpressing cells", "format": "biochemical", "settings": "selectivity for GBA", "protocol": "(§1) All assays were performed in duplicate sets, each with 3 technical replicates at each inhibitor concentration. DMSO concentration was kept at 0.5 %–1 % (v/v) in all assays during incubation with compounds. In vitro apparent IC50 values were calculated by fitting data with [inhibitor] vs. response‐various slope (four parameters) function using Graphpad Prism 7.0 software. Average values and standard deviations were calculated from the two sets."}, "[2]": {"target": "T2, recombinant human GAA (rhGAA, Myozyme) (Homo sapiens, UniProt P10253)", "T2 construct": "purchased Sanofi Genzyme (Cambridge, MA, USA)", "test": "In vitro apparent IC50, fluorogenic substrate assay on rhGAA", "format": "biochemical", "settings": "selectivity for GBA", "protocol": "as §1"}}}
{"smiles": "CCCCCCCCN1[C@@H]2[C@H](Cn3cc(CNC(=O)CCCCC[N+]4=C(/C=C/C=C/C=C5/N(C)c6ccccc6C5(C)C)C(C)(C)c5ccccc54)nn3)[C@@H](O)[C@H](O)[C@@H](O)[C@@H]21", "note": "(some centres unmarked) [ABP 6]", "values": [{"measurement": "IC50 ratio GBA2/GBA", "setting": "[1]", "result": "> 10^3"}, {"measurement": "IC50 ratio GAA/GBA", "setting": "[2]", "result": "> 10^3"}]}
